The term IC50 denotes the point on the concentration scale where inhibition reaches its midpoint.

Chains of the proteins cited; added tags and fusions are not shown.
UniProt Q9GZT9, whole entry: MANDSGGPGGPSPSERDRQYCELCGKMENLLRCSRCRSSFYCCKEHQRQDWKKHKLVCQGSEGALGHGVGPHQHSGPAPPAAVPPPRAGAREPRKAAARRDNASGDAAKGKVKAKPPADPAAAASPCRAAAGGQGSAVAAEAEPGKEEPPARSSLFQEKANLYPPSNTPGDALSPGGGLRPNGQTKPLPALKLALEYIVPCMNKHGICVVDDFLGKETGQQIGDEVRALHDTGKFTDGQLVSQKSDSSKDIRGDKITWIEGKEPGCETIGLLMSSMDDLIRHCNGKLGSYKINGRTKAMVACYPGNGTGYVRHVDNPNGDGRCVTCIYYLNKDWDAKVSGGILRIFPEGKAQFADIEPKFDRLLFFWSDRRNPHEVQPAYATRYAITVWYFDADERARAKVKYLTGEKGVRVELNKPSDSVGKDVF
UniProt Q96KS0, whole entry: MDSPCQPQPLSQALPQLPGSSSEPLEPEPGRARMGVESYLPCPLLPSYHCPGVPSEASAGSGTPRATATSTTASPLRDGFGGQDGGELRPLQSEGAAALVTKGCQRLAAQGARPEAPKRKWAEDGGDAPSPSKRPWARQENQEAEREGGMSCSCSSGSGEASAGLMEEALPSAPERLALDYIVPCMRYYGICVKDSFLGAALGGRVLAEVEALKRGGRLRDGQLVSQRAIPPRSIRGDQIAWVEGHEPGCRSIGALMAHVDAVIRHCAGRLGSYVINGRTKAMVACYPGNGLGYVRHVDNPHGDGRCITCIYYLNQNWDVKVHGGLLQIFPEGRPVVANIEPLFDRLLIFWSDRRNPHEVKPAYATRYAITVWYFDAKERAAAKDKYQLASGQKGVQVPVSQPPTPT
UniProt Q9H6Z9, whole entry: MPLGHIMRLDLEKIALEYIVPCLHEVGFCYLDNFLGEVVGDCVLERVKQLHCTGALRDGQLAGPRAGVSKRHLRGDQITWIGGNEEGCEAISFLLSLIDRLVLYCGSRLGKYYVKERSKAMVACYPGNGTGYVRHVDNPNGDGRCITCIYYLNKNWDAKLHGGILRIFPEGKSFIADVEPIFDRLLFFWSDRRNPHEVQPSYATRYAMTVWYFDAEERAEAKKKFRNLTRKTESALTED

Experiment [1] addresses HIF-PHD2 (Homo sapiens, UniProt Q9GZT9). The experiment in a line: Assay for HIF-PHD2 Catalytic Activity (PHD2 Binding Activity). In kind it is biochemical. Particulars: read-out: IC50 (nM) HIF-PHD-1 (second entry of the head; HIF-PHD2 in the text), comparison compounds of WO 2008/030412.
The target of experiment [2] is HIF-PHD1 (Homo sapiens, UniProt Q96KS0). The experiment in a line: Inhibition of the catalytic activity of HIF-PHD1. To be noted: read-out: IC50 (nM) HIF-PHD-1, comparison compounds of WO 2008/030412.
Experiment [3] deals with HIF-PHD3 (Homo sapiens, UniProt Q9H6Z9). The experiment in a line: Inhibition of the catalytic activity of HIF-PHD3. Particulars: read-out: IC50 (nM) HIF-PHD-3, comparison compounds of WO 2008/030412.

Molecules are shown by their SMILES. Where two headings read alike, the source gives them in different places.

Turning to `Cc1cc(CN2C(=O)N(c3cccc(F)c3)[C@@]3(CCN(Cc4ccoc4)[C@@H](C)C3)C2=O)no1`, the IC50 in experiment [1] (tested form: TFA), in experiment [2] (tested form: TFA) and in experiment [3] (tested form: TFA) was greater than 50000 nM in each case.

As to `Cc1cc(CN2C(=O)N(c3cccc(F)c3)[C@@]3(CCN(Cc4cccnc4)[C@@H](C)C3)C2=O)no1`, the IC50 in experiment [1], in experiment [2] and in experiment [3] was greater than 10000 nM each time.

The values are drawn from patent US8921555B2, “Substituted-1,3,8-triazaspiro[4.5]decane-2,4-diones” (Merck Sharp & Dohme Corp., priority 2009, dated 2014).
